{"source": "patent US20250345253A1", "about": "(priority 2024, published 2025)", "origin": "cited, not measured here", "key": {"[1]": {"conditions": "20° C.; cited from earlier work"}, "[2]": {"conditions": "cited from earlier work"}}, "data": [{"substance": "Sodium Dichloroisocyanurate Dihydrate", "values": [{"measurement": "Solubility (mg/L H2O)", "setting": "[1]", "value": "28,000 b mg/L H2O"}, {"measurement": "pH, 1% solution unless otherwise noted", "setting": "[2]", "value": 6.0, "unit": "b"}]}]}
